Measurements from US20220090089A1.

Target: glycosylphosphatidyl-inositol (GPI)-anchored EGFP on HEK293T cells
Experiment: flow cytometry screen of single phage nanobody clones on EGFP-GPI expressing HEK293T cells; ratio of Q2 to Q1 signal

“94 phage nanobody clones derived from PANL selection round 3” was tested, and the percent of clones that recognized EGFP-GPI+ cells with strong binding (Q2/Q1>1) was over 95%.
